# Assay results: US20230212120A1, “SMALL MOLECULE INHIBITORS OF GRK5 AND GRK5 SUBFAMILY MEMBERS AND USES THEREOF” (The Regents of the University of Michigan, priority 2020, published 2023)
# Sequences of proteins named here, by UniProt entry; tags and fusion partners are left off.
# UniProt P34947, whole entry, looked up: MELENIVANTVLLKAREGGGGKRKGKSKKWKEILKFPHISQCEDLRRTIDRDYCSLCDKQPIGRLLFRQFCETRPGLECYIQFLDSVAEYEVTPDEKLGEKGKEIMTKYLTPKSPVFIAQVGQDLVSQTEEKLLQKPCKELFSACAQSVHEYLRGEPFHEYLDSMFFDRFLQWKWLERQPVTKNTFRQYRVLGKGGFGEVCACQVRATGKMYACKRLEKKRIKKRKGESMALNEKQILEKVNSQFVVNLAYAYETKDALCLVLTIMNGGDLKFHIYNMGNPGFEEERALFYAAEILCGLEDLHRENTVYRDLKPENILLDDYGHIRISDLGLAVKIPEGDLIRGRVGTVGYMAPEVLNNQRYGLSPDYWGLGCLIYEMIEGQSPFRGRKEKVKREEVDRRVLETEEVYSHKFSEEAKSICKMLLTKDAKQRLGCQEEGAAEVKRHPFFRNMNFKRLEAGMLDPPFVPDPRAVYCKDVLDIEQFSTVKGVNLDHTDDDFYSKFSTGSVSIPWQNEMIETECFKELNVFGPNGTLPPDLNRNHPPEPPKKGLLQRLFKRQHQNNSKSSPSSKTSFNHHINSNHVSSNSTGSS
# Target: GRK5 (Homo sapiens, UniProt P34947)
# Experiment: radiometric GRK5 inhibition assay (tubulin phosphorylation)
# Settings: read-out: GRK5 IC50
smiles,measurement,value
"Cc1[nH]c(/C=C2\C(=O)Nc3ccc(C(=O)N[C@@H](c4ccccc4)C(C)C)cc32)c(C)c1NC(=O)CCl [Compound 9r, (R,Z)-3-((4-(2-chloroacetamido)-3,5-dimethyl-1H-pyrrol-2-yl)methylene)-N-(2-methyl-1-phenylpropyl)-2-oxoindoline-5-carboxamide]",IC50,12 µM
